T1: ^FAMCENP-C^1–71, Q03188
T1 chain: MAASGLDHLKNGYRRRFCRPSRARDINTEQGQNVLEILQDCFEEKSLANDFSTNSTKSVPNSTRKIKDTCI

T2: ^FAMCENP-C^1–21, Q03188
T2 chain: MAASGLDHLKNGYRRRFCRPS

T3: ^FAMCENP-C^1–21 (human), Q03188
T3 chain: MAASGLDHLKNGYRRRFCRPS


What was measured:
^FAMCENP-C^1–71, Q03188 = target: T1, ^FAMCENP-C^1–71, Q03188; assay: analytical SEC (495 nm absorbance of FAM-CENP-C1-71 co-eluting with MIS12C); conditions: chain shown with the change; height of the 495 nm peak at the MIS12C elution volume (about 1.5 ml); read off a plot
^FAMCENP-C^1–21, Q03188 = target: T2, ^FAMCENP-C^1–21, Q03188; assay: fluorescence polarisation; conditions: chain shown with the change; FAM-CENP-C1-21 peptide at 20 nM; value at the highest MIS12C concentration (about 25 µM, estimated); parent: est. 170; read off a plot
[1] = target: T3, ^FAMCENP-C^1–21 (human), Q03188; assay: fluorescence polarisation; 20 nM 5-FAM CENP-C^1-21 peptide with increasing MIS12C variant (1.28 pM-30 μM), 20 mM Tris-HCl pH 8, 150 mM NaCl, 1 mM TCEP, measured at 30°C at equilibrium

| Binder | response (^FAMCENP-C^1–71, Q03188) | response (Polarization (x10^3)) (^FAMCENP-C^1–21, Q03188) | also measured |
| --- | --- | --- | --- |
| MIS12C^Nano, Q9H081;Q6P1K2;Q96IY1;Q9H410 MIS12:D30A; MIS12:E34A (protein) chain 1: MSVDPMTYEAQFFGFTPQTCMLRIYIAFQAYLFAVMQAVEQVILKKLDGIPDCDISPVQIRKCTEKFLCFMKGHFDNLFSKMEQLFLQLILRIPSNILLPEDKCKETPYSEEDFQHLQKEIEQLQEKYKTELCTKQALLAELEEQKIVQAKLKQTLTFFDELHNVGRDHGTSDFRESLVSLVQNSRKLQNIRDNVEKESKRLKIS chain 2: TISRVKLLDTMVDTFLQKLVAAGSYQRFTDCYKCFYQLQPAMTQQIYDKFIAQLQTSIREEISDIKEEGNLEAVLNALDKIVEEGKVRKEPAWRPSGIPEKDLHSVMAPYFLQQRDTLRRHVQKQEAENQQLADAVLAGRRQVEELQLQVQAQQQAWQALHREQRELVAVLREPE chain 3: MAGSPELVVLDPPWDKELAAGTESQALVSATPREDFRVRCTSKRAVTEMLQLCGRFVQKLGDALPEEIREPALRDAQWTFESAVQENISINGQAWQEASDNCFMDSDIKVLEDQFDEIIVDIATKRKQYPRKILECVIKTIKAKQEILKQYHPVVHPLDLKYDPDPAPHMENLKCRGETVAKEISEAMKSLPALIEQGEGFSQVLRMQPVIHLQRIHQEVFSSCHRKPDAKPENFITQIETTPTETASRKTSDMVLKRKQTKDCPQRKWYPLRPKKINLDT chain 4: SHQERLQSKSLHLSPQEQSASYQDRRQSWRRASMKETNRRKSLHPIHQGITELSRSISVDLAESKRLGCLLLSSFQFSIQKLEPFLRDTKGFSLESFRAKASSLSEELKHFADGLETDGTLQKCFEDSNGKASDFSLEASVAEMKEYITKFSLERQTWDQLLLHYQQEAKEILSRGSTEAKITEVKVEPMTYLGSSQNEVLNTKPDYQKILQNQSKVFDCMELVMDELQGSVKQLQAFMDESTQCFQKVSVQLGKRSMQQLDPSPARKLLKLQLQNPPAIHGSGSGSCQ | 4.7 AU |  |  |
| MIS12C^Nano, Q9H081;Q6P1K2;Q96IY1;Q9H410 NSL1:D105A; NSL1:E112A; NSL1:D113A (protein) chain 1: MSVDPMTYEAQFFGFTPQTCMLRIYIAFQDYLFEVMQAVEQVILKKLDGIPDCDISPVQIRKCTEKFLCFMKGHFDNLFSKMEQLFLQLILRIPSNILLPEDKCKETPYSEEDFQHLQKEIEQLQEKYKTELCTKQALLAELEEQKIVQAKLKQTLTFFDELHNVGRDHGTSDFRESLVSLVQNSRKLQNIRDNVEKESKRLKIS chain 2: TISRVKLLDTMVDTFLQKLVAAGSYQRFTDCYKCFYQLQPAMTQQIYDKFIAQLQTSIREEISDIKEEGNLEAVLNALDKIVEEGKVRKEPAWRPSGIPEKDLHSVMAPYFLQQRDTLRRHVQKQEAENQQLADAVLAGRRQVEELQLQVQAQQQAWQALHREQRELVAVLREPE chain 3: MAGSPELVVLDPPWDKELAAGTESQALVSATPREDFRVRCTSKRAVTEMLQLCGRFVQKLGDALPEEIREPALRDAQWTFESAVQENISINGQAWQEASDNCFMASDIKVLAAQFDEIIVDIATKRKQYPRKILECVIKTIKAKQEILKQYHPVVHPLDLKYDPDPAPHMENLKCRGETVAKEISEAMKSLPALIEQGEGFSQVLRMQPVIHLQRIHQEVFSSCHRKPDAKPENFITQIETTPTETASRKTSDMVLKRKQTKDCPQRKWYPLRPKKINLDT chain 4: SHQERLQSKSLHLSPQEQSASYQDRRQSWRRASMKETNRRKSLHPIHQGITELSRSISVDLAESKRLGCLLLSSFQFSIQKLEPFLRDTKGFSLESFRAKASSLSEELKHFADGLETDGTLQKCFEDSNGKASDFSLEASVAEMKEYITKFSLERQTWDQLLLHYQQEAKEILSRGSTEAKITEVKVEPMTYLGSSQNEVLNTKPDYQKILQNQSKVFDCMELVMDELQGSVKQLQAFMDESTQCFQKVSVQLGKRSMQQLDPSPARKLLKLQLQNPPAIHGSGSGSCQ |  | 100 |  |
| MIS12C^Nano, Q9H081;Q6P1K2;Q96IY1;Q9H410 MIS12:Y8A; MIS12:F12A; MIS12:F13A (protein) chain 1: MSVDPMTAEAQAAGFTPQTCMLRIYIAFQDYLFEVMQAVEQVILKKLDGIPDCDISPVQIRKCTEKFLCFMKGHFDNLFSKMEQLFLQLILRIPSNILLPEDKCKETPYSEEDFQHLQKEIEQLQEKYKTELCTKQALLAELEEQKIVQAKLKQTLTFFDELHNVGRDHGTSDFRESLVSLVQNSRKLQNIRDNVEKESKRLKIS chain 2: TISRVKLLDTMVDTFLQKLVAAGSYQRFTDCYKCFYQLQPAMTQQIYDKFIAQLQTSIREEISDIKEEGNLEAVLNALDKIVEEGKVRKEPAWRPSGIPEKDLHSVMAPYFLQQRDTLRRHVQKQEAENQQLADAVLAGRRQVEELQLQVQAQQQAWQALHREQRELVAVLREPE chain 3: MAGSPELVVLDPPWDKELAAGTESQALVSATPREDFRVRCTSKRAVTEMLQLCGRFVQKLGDALPEEIREPALRDAQWTFESAVQENISINGQAWQEASDNCFMDSDIKVLEDQFDEIIVDIATKRKQYPRKILECVIKTIKAKQEILKQYHPVVHPLDLKYDPDPAPHMENLKCRGETVAKEISEAMKSLPALIEQGEGFSQVLRMQPVIHLQRIHQEVFSSCHRKPDAKPENFITQIETTPTETASRKTSDMVLKRKQTKDCPQRKWYPLRPKKINLDT chain 4: SHQERLQSKSLHLSPQEQSASYQDRRQSWRRASMKETNRRKSLHPIHQGITELSRSISVDLAESKRLGCLLLSSFQFSIQKLEPFLRDTKGFSLESFRAKASSLSEELKHFADGLETDGTLQKCFEDSNGKASDFSLEASVAEMKEYITKFSLERQTWDQLLLHYQQEAKEILSRGSTEAKITEVKVEPMTYLGSSQNEVLNTKPDYQKILQNQSKVFDCMELVMDELQGSVKQLQAFMDESTQCFQKVSVQLGKRSMQQLDPSPARKLLKLQLQNPPAIHGSGSGSCQ |  | 140 |  |
| MIS12C^Nano, Q9H081;Q6P1K2;Q96IY1;Q9H410 MIS12:D30A; MIS12:E34A; MIS12:E65A; MIS12:D76A (protein) chain 1: MSVDPMTYEAQFFGFTPQTCMLRIYIAFQAYLFAVMQAVEQVILKKLDGIPDCDISPVQIRKCTAKFLCFMKGHFANLFSKMEQLFLQLILRIPSNILLPEDKCKETPYSEEDFQHLQKEIEQLQEKYKTELCTKQALLAELEEQKIVQAKLKQTLTFFDELHNVGRDHGTSDFRESLVSLVQNSRKLQNIRDNVEKESKRLKIS chain 2: TISRVKLLDTMVDTFLQKLVAAGSYQRFTDCYKCFYQLQPAMTQQIYDKFIAQLQTSIREEISDIKEEGNLEAVLNALDKIVEEGKVRKEPAWRPSGIPEKDLHSVMAPYFLQQRDTLRRHVQKQEAENQQLADAVLAGRRQVEELQLQVQAQQQAWQALHREQRELVAVLREPE chain 3: MAGSPELVVLDPPWDKELAAGTESQALVSATPREDFRVRCTSKRAVTEMLQLCGRFVQKLGDALPEEIREPALRDAQWTFESAVQENISINGQAWQEASDNCFMDSDIKVLEDQFDEIIVDIATKRKQYPRKILECVIKTIKAKQEILKQYHPVVHPLDLKYDPDPAPHMENLKCRGETVAKEISEAMKSLPALIEQGEGFSQVLRMQPVIHLQRIHQEVFSSCHRKPDAKPENFITQIETTPTETASRKTSDMVLKRKQTKDCPQRKWYPLRPKKINLDT chain 4: SHQERLQSKSLHLSPQEQSASYQDRRQSWRRASMKETNRRKSLHPIHQGITELSRSISVDLAESKRLGCLLLSSFQFSIQKLEPFLRDTKGFSLESFRAKASSLSEELKHFADGLETDGTLQKCFEDSNGKASDFSLEASVAEMKEYITKFSLERQTWDQLLLHYQQEAKEILSRGSTEAKITEVKVEPMTYLGSSQNEVLNTKPDYQKILQNQSKVFDCMELVMDELQGSVKQLQAFMDESTQCFQKVSVQLGKRSMQQLDPSPARKLLKLQLQNPPAIHGSGSGSCQ | 1.6 AU |  |  |
| MIS12C^ΔHead2, Q9H081 1-205; Q6P1K2 31-205; Q96IY1 1-281; Q9H410 1-356 (complex, modifications not checked) chain 1: MSVDPMTYEAQFFGFTPQTCMLRIYIAFQDYLFEVMQAVEQVILKKLDGIPDCDISPVQIRKCTEKFLCFMKGHFDNLFSKMEQLFLQLILRIPSNILLPEDKCKETPYSEEDFQHLQKEIEQLQEKYKTELCTKQALLAELEEQKIVQAKLKQTLTFFDELHNVGRDHGTSDFRESLVSLVQNSRKLQNIRDNVEKESKRLKIS chain 2: TISRVKLLDTMVDTFLQKLVAAGSYQRFTDCYKCFYQLQPAMTQQIYDKFIAQLQTSIREEISDIKEEGNLEAVLNALDKIVEEGKVRKEPAWRPSGIPEKDLHSVMAPYFLQQRDTLRRHVQKQEAENQQLADAVLAGRRQVEELQLQVQAQQQAWQALHREQRELVAVLREPE chain 3: GTLQKCFEDSNGKASDFSLEASVAEMKEYITKFSLERQTWDQLLLHYQQEAKEILSRGSTEAKITEVKVEPMTYLGSSQNEVLNTKPDYQKILQNQSKVFDCMELVMDELQGSVKQLQAFMDESTQCFQKVSVQLGKRSMQQLDPSPARKLLKLQLQNPPAIHGSGSGSCQ chain 4: GQAWQEASDNCFMDSDIKVLEDQFDEIIVDIATKRKQYPRKILECVIKTIKAKQEILKQYHPVVHPLDLKYDPDPAPHMENLKCRGETVAKEISEAMKSLPALIEQGEGFSQVLR |  |  | Kd [1]: 2.2 nM |

— publication PMC5101189, “Structure of the MIS12 Complex and Molecular Basis of Its Interaction with CENP-C at Human Kinetochores” (Cell, 2016)
